## AlphaSeq binding of Ab-14 light chain variants to a spike HR2 peptide

Values reported by Li et al. 2023, doi:10.1038/s41467-023-39022-2 (FLAb copy).

Target peptide (SARS-CoV-2 spike, HR2 region): PDVDLGDISGINAS

The variants keep the heavy chain, the linker and the frameworks of Ab-14 (scFv order VH, a 15-residue (Gly4Ser)3 linker, VL).
VH: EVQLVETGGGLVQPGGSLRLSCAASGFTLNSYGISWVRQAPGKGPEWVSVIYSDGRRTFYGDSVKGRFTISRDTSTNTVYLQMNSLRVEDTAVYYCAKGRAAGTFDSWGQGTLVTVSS
VL: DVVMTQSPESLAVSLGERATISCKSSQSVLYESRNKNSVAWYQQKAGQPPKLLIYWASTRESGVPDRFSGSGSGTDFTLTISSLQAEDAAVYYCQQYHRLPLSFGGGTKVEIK

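The variants were designed computationally from a first round of random CDR variants and then made and measured. Their group label is 14L_GP_Gen (GP: Gaussian process model; Gen: genetic algorithm; a sequence that several methods proposed may carry one label only). Affinity was read by AlphaSeq, a pooled yeast mating assay with surface-displayed partners. Binding brings cells together so that they mate, and sequencing counts the barcode pairs among the diploids. A regression on co-assayed BCL2-family reference pairs converts the normalised counts of each replicate to an apparent Kd. Each pool was mated in six replicate cultures.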

The parent's light chain CDRs are KSSQSVLYESRNKNSVA, WASTRES, QQYHRLPLS; each variant's own CDRs replace them letter for letter.
Affinities are written as log10 Kd with Kd in nM; a lower number is a better binder.
Averages over replicates are reported, and they cover detected replicates only.
Background: pairings of all light chain designs with three empty control strains gave a value in 4% of cases (median 2.64, 5th percentile 1.59). Values in that range, when seen in few replicates, are hard to tell from nonspecific mating. The control count says in how many pairings with the empty strains this scFv gave a signal, with their mean in brackets.

CDR-L1,CDR-L2,CDR-L3,"replicates, log10 nM",mean log10 Kd (nM),control signals
KLSQSVLYESRNKNAVA,EASTRES,QQYHRLPLS,-0.40 / -0.62 / -0.55 / -0.45 / -0.49 / -0.56,-0.51,0/18
KLDQSQLYESRNKNSVA,NASQRES,QQYHRLPLS,-0.31 / -0.44 / -0.51 / -0.47 / -0.58 / -0.29,-0.44,1/18 (2.92)
KLSQSVLYQSRNKNSVA,GASTRES,QQYHRLPLS,-0.02 / -0.08 / -0.24 / -0.37 / -0.24 / -0.13,-0.18,0/18
KLPQSGLYESRNKNSVA,EASTREV,QQYHRLPLS,-0.26 / -0.11 / -0.31 / -0.40 / -0.16 / -0.02,-0.21,1/18 (2.45)
KLSQSWLYESRNKNNVA,NASTRES,QDYHRLPLS,-0.29 / -0.50 / -0.59 / -0.74 / -0.72 / -0.62,-0.58,1/18 (4.40)
KLSQSELYESRNKNSVA,NASQRLQ,QQYHRLPLS,0.55 / 0.56 / -0.26 / -0.30 / 0.07 / 0.39,0.17,0/18
KVQQSVWYESRNKNSVA,EASTRES,QQYHRLPLS,0.56 / 0.59 / 0.34 / 0.09 / 0.28 / 0.23,0.35,2/18 (3.99)
KVSQSVLYESRNKNSVA,DGSTRES,QQYHRLPLS,0.06 / 0.29 / -0.01 / -0.10 / 0.10 / 0.24,0.10,1/18 (2.51)
KLSQSELYESRNKNSVA,NASTRES,QDYHRLPLS,-0.18 / 0.26 / -0.38 / -0.54 / 0.07 / 0.08,-0.12,1/18 (3.87)
KLSQSWLYESRNKMSVA,NASTRES,QQYHRLPLS,0.05 / -0.12 / -0.03 / -0.21 / -0.25 / 0.18,-0.06,1/18 (3.16)
KVSQSQLYESRNKNNVA,HASTRES,QQYHRLPLS,-0.12 / -0.35 / -0.09 / -0.33 / -0.26 / -0.01,-0.19,0/18
KLSQSYPYESRNKNSVA,NASTRES,QQYHRLPLS,0.05 / -0.02 / 0.01 / -0.27 / 0.00 / 0.12,-0.02,0/18
KLSWSVLYESRNKNNVA,DASTRES,QQYHRLPLS,-0.49 / -0.84 / -0.57 / -0.64 / -0.93 / -0.49,-0.66,0/18
KVSQSVLYESRNGNSVA,NASTRES,QQYHRLPLS,-0.41 / -0.04 / -0.21 / -0.39 / -0.46 / -0.27,-0.30,1/18 (3.01)
KVSMSQLYESRNKNSVA,NASTRES,QQYHRLPLS,0.10 / -0.25 / -0.12 / -0.23 / -0.20 / 0.03,-0.11,1/18 (2.73)
KLSQSVLYESRNKNSVA,EASTRES,QQYHRLPLS,-0.30 / -0.36 / -0.30 / -0.50 / -0.40 / -0.12,-0.33,0/18
KLSQSELYESRNSNSVA,NASYRES,QQYHRLPLS,0.00 / 0.04 / -0.30 / -0.04 / -0.03 / -0.18,-0.09,1/18 (2.30)
KLSQSVLYESRNKNSVA,NASTRES,QQYHRLPLG,0.05 / -0.11 / -0.18 / -0.49 / -0.32 / -0.14,-0.20,2/18 (3.00)
KVSQSKLYESRNKNSVA,NASQRES,QQYHRLPLS,-0.03 / -0.47 / 0.02 / 0.14 / -0.19 / 0.12,-0.07,0/18
KLYQSDLYESRNKNSVA,NASTRES,QQYHRLPLS,-0.09 / -0.27 / -0.23 / -0.37 / -0.29 / -0.01,-0.21,2/18 (3.03)
KLSQSWLYESRNTNSVA,NASTRES,QQYHRLPLS,-0.19 / -0.38 / -0.43 / -0.29 / -0.50 / -0.25,-0.34,0/18
KVSQSVLYESRNWNSVA,NASTRES,QQYHRLPLS,0.15 / 0.39 / 0.19 / 0.42 / 0.30 / 0.56,0.33,3/18 (2.50)
KLSQSVLYESRNKNSVA,SASTRLS,QQYHRLPLS,-0.35 / -0.54 / -0.46 / -0.39 / -0.56 / -0.44,-0.46,1/18 (1.85)
KVSQSVWYESRNKNSVA,NASQRES,QQYHRLPLS,0.16 / 0.01 / -0.04 / -0.16 / -0.22 / -0.09,-0.06,2/18 (2.48)
KFSQSVLYQSRNKNSVA,EASTRES,QQYHRLPLS,-0.11 / -0.30 / -0.21 / -0.60 / -0.36 / 0.02,-0.26,0/18
KLQQSMLYESRNKNSVA,NASTRES,QQYHRLPLS,0.18 / 0.42 / 0.16 / 0.01 / -0.01 / 0.13,0.15,2/18 (3.39)
KFSQSVLYESRNKNSVA,DASTRCS,QQYHRLPLS,-0.31 / -0.54 / -0.55 / -0.51 / -0.60 / -0.29,-0.47,0/18
KLSQSVLVESRNKNSVA,NASTRES,QQYHRLPLS,0.04 / -0.10 / -0.14 / -0.27 / -0.23 / -0.14,-0.14,3/18 (3.16)
KLSQSVLYESRNKNNVA,EASTREW,QQYHRLPLS,0.03 / -0.11 / -0.23 / -0.43 / -0.28 / -0.21,-0.20,1/18 (2.39)
KLQQSELYESRNKNSVA,NASTREE,QQYHRLPLS,0.16 / -0.14 / -0.08 / -0.37 / -0.15 / 0.02,-0.09,0/18
KFSQSTLYESRNKNSVA,NASTRES,QQYHRLPLS,-0.12 / -0.03 / -0.18 / -0.41 / -0.28 / -0.11,-0.19,0/18
KLSQSTLYESRNKNSVA,QASTRES,QQYHRLPLS,0.59 / -0.24 / 0.17 / -0.25 / 0.17 / 0.06,0.08,1/18 (3.05)
KLPQSVLYESRMKNSVA,NASTRMS,QQYHRLPLS,0.04 / -0.08 / 0.00 / -0.20 / 0.03 / -0.02,-0.04,2/18 (2.32)
KLQQSVLYESRNKNSVA,NASLRES,QQYHRLPLS,0.07 / -0.04 / 0.05 / -0.14 / -0.16 / -0.18,-0.07,1/18 (2.52)
KLSQSVLYESRNKNSVA,DASTREE,QQYHRLPLS,-0.55 / -0.90 / -0.94 / -0.90 / -0.48 / -0.62,-0.73,0/18
KVSQSVLYEDRNKNSVA,HASTRES,QQYHRLPLS,-0.02 / 0.06 / -0.29 / -0.42 / -0.11 / 0.06,-0.12,1/18 (1.87)

For reference, 2 entries of the list once more:

CDR-L1,CDR-L2,CDR-L3,"replicates, log10 nM",mean log10 Kd (nM),control signals
KFSQSTLYESRNKNSVA,NASTRES,QQYHRLPLS,-0.12 / -0.03 / -0.18 / -0.41 / -0.28 / -0.11,-0.19,0/18
KLSQSVLYESRNKNSVA,SASTRLS,QQYHRLPLS,-0.35 / -0.54 / -0.46 / -0.39 / -0.56 / -0.44,-0.46,1/18 (1.85)

A sequence measured in both rounds can read differently, since the two assays cover different ranges.
The authors' rule: three or more of the six replicates give a measured affinity, fewer mean a poor binder.